# Results as given in PubChem BioAssay AID489030 (Sanford-Burnham Center for Chemical Genomics, 2010).
# By UniProt entry, the sequences of proteins in these tests, tags left out.
# UniProt O14727, whole entry: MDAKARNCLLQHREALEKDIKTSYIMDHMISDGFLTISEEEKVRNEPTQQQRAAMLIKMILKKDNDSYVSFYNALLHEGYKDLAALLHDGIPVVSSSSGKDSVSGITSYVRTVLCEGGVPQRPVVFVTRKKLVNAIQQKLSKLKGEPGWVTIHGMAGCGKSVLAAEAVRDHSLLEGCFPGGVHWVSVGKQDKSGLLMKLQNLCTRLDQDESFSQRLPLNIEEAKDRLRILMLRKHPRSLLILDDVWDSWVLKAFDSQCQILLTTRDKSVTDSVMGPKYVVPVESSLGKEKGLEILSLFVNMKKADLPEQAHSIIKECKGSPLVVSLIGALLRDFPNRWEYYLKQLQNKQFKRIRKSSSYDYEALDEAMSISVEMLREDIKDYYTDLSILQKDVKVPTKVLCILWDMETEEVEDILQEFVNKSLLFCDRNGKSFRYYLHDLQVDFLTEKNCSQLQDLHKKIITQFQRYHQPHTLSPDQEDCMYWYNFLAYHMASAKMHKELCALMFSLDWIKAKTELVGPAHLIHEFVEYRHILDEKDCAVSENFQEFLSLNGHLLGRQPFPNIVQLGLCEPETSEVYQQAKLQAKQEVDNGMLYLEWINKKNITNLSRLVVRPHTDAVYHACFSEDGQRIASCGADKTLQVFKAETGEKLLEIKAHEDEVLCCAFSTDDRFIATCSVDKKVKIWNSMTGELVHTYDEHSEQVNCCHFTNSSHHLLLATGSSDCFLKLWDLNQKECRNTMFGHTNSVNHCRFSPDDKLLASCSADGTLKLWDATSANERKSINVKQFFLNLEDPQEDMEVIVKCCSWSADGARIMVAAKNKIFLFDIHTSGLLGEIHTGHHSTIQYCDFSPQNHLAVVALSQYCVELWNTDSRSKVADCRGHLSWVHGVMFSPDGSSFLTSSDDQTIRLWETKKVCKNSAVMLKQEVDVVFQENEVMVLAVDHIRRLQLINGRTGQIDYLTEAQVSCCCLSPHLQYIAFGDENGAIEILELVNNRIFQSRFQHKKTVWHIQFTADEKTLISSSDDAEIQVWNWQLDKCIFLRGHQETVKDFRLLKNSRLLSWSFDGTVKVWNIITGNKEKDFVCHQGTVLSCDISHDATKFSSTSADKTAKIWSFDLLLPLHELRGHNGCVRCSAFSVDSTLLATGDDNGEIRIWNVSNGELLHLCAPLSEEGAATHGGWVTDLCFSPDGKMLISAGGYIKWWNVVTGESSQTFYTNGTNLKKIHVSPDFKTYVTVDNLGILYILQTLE
# The list shows a part of the results, in another mix than the full data. Some of these compounds have results that are not shown, active ones among them. Activity calls are given as the source filed them. Rule for the calls: active = inhibition of at least 40% at 20 µM; inactive = the rest.
# Molecular target: Apoptotic protease-activating factor 1 (Homo sapiens) (UniProt O14727)
# Assay: inhibitors of human Apaf-1 apoptosome, primary screen, biochemical, DEVD-Rh110 fluorescence, uHTS (AID 489030);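 note: plate controls were DMSO wells for no effect and DEVD-CHO caspase inhibitor wells for full effect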
# Details: reconstituted apoptosome caspase-3 activity, at 20 µM, stronger effect = higher value
# How it was run: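 detection = Rh110 fluorescence intensity | test system = biochemical Apaf-1 apoptosome reconstitution | also added = cytochrome c and DEVD-Rh110 substrate | schedule = 30 min plus 50 min, RT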
row,Compound,inhibition
1,CN(C)C1CCCC1OC(=O)C(O)(c1ccccc1)c1ccccc1 (centres undefined),inactive: -1.57%
2,CN(C)c1ccc(C(=O)NCC2(N(C)C)CCCCC2)cc1,inactive: 1.89%
3,Cc1ccccc1C(=O)NCC1(N2CCCCC2)CCCCC1,inactive: 5.1%
4,O=C(NCC1(N2CCCCC2)CCCCC1)c1cc(F)c(F)cc1Cl,inactive: 0.996%
5,C=CCN1CCN(CCOC(=O)C(O)(c2ccccc2)c2ccccc2)CC1,inactive: 0.163%
6,COc1ccc(C(=O)NCC2(N(C)C)CCCCC2)cc1,inactive: 0.503%
7,O=C(NCC1(N2CCCCC2)CCCCC1)c1cccc(Br)c1,inactive: -8.04%
8,Cc1cc(C(=O)NCC2(N3CCCCC3)CCCCC2)ccc1[N+](=O)[O-],inactive: 8.62%
9,CCN1CCCC(OC(=O)C2(O)c3ccccc3C=Cc3ccccc32)C1 (centres undefined),inactive: 3.64%
10,O=C(NCC1(N2CCCCC2)CCCCC1)c1cc([N+](=O)[O-])ccc1Cl,inactive: -3.52%
11,CN1[C@@H]2CC[C@H]1CC(OC(=O)C(O)(c1ccccc1)c1ccccc1)C2 (some centres undefined),inactive: 6.05%
12,COc1cc(SC)ccc1C(=O)NCC1(N(C)C)CCCCC1,inactive: 0.788%
13,CCN(CC)CC(C)C(C)OC(=O)C(O)(c1ccccc1)c1ccccc1 (centres undefined),inactive: -22.2%
14,CC(C)N1C(=O)CC2(CCN(CCOC(=O)C(O)(c3ccccc3)c3ccccc3)CC2)C1=O,inactive: -8.66%
15,Cc1ccc(C(=O)NCC2(N3CCCCC3)CCCCC2)cc1,inactive: -2.43%
16,O=C(OC1CN2CCC1CC2)C(CO)(c1ccccc1)c1ccccc1 (centres undefined),inactive: 0.196%
17,COc1ccc(Br)c(C(=O)NCC2(N3CCCCC3)CCCCC2)c1,inactive: -8.2%
18,CC(C)Oc1ccc(C(=O)NCC2(N(C)C)CCCCC2)cc1,inactive: 10.9%
19,CN(C)c1cccc(C(=O)NCC2(N(C)C)CCCCC2)c1,inactive: 2.15%
20,CN(C)C1(CNC(=O)c2ccc(Br)cc2)CCCCC1,inactive: 20.1%
21,COc1cc(C(=O)NCC2(N(C)C)CCCCC2)c([N+](=O)[O-])cc1OC,inactive: 15%
22,COc1ccc(Cl)cc1C(=O)NCC1(N(C)C)CCCCC1,inactive: 0.513%
23,COc1cccc(C(=O)NCC2(N3CCCCC3)CCCCC2)c1,inactive: -15.9%
24,O=C(NCC1(N2CCCCC2)CCCCC1)c1cccc(Cl)c1,inactive: -3.96%
